Measured values as given in PMC5349910, “Discovery of BPR1K871, a quinazoline based, multi-kinase inhibitor for the treatment of AML and solid tumors: Rational design, synthesis, in vitro and in vivo evaluation” (Oncotarget, 2016).

System: HCC827 cells
Experiment: Anti-proliferative activity, HCC827
Assay type: cell-based
Details: Homo sapiens, HCC827, read-out: HCC827 EC50

EC50: 6.27 µM
Structure (SMILES): CNC(=O)c1cc(Oc2ccc(NC(=O)Nc3ccc(Cl)c(C(F)(F)F)c3)cc2)ccn1 [Sorafenib]
